# Experimental data: patent US20240050463A1, “THERAPEUTIC COMPOSITIONS AND METHODS FOR TREATING HEPATITIS B” (ARBUTUS BIOPHARMA CORPORATION, priority 2016, published 2024)
# How the values were obtained:
# Format in all cases: cell-based
# [1] = system: HBsAg, D type HBV in primary human hepatocytes (PHH); conditions: for AVERAGE % INHIBITION: HBsAg, COMPOUND 3 0.00 μM
# Method: (§1) The mouse liver perfusion was applied to isolate PHHs. The isolated hepatocytes were further purified by Percoll. The cells were resuspended with culture media and seeded into the 96-well plates (6×10^4 cell/well) or 48-well plates (1.2×10^5 cell/well). The PHHs were infected with a D type HBV one day post seeding (day 1).
# (§2) On day 2, the test compounds were diluted and added into the cell culture plates. The culture media containing the compounds were refreshed every other day. The cell culture supernatants were collected on day 8 for the HBV DNA and antigen determinations.
# (§3) The compounds were tested at 7 concentrations, 3-fold dilution, in triplicate.
# (§4) Two compounds were tested at 5×5 matrix, in triplicate plates.
# (§5) HBsAg/HBeAg in the culture supernatants harvested on days 8 were measured by the HBsAg/HBeAg ELISA kit (Autobio) according to the manual. The samples were diluted with PBS to get the signal in the range of the standard curve. The inhibition rates were calculated with the formula below. The combination effect was analyzed by the MacSynergy software.
# % Inh. HBsAg=[1−HBsAg quantity of sample/HBV quantity of DMSO control]×100.
# [2] = system: D type HBV in primary human hepatocytes (PHH); assay: HBV DNA in culture supernatants of HBV-infected primary human hepatocytes (qPCR), MacSynergy; conditions: for AVERAGE % INHIBITION: HBV DNA, COMPOUND 3 0.00 μM
# Method: as §1, §2, §3, §4
# DNA in the culture supernatants harvested on days 8 were isolated with QIAamp 96 DNA Blood Kit (Qiagen-51161). For each sample, 100 μl of the culture supernatants was used to extract DNA. The DNA was eluted with 100 μl, 150 μl or 180 μl of AE. HBV DNA in the culture supernatants was quantified by qPCR. The combination effect was analyzed by the MacSynergy software. The primers are described below.
# [3] = system: HBeAg, D type HBV in primary human hepatocytes (PHH); conditions: for AVERAGE % INHIBITION: HBeAg, COMPOUND 3 0.00 μM
# Method: as §1, §2, §3, §4, §5
# % Inh. HBeAg=[1−HBeAg quantity of sample/HBV quantity of DMSO control]×100.
# [4] = IFNα2a 0.12 IU/mL, COMPOUND 25 0.00 μM
# [5] = IFNα2a 0.37 IU/mL, COMPOUND 25 0.00 μM
# [6] = IFNα2a 1.11 IU/mL, COMPOUND 25 0.00 μM
# [7] = IFNα2a 3.33 IU/mL, COMPOUND 25 0.00 μM
# [8] = IFNα2a 10.00 IU/mL, COMPOUND 25 0.00 μM
substance,measurement,setting,value
pegIFN α-2a: pegylated interferon alpha-2a,AVERAGE % INHIBITION,[1]; IFNα2a 0.12 IU/mL,1.56%
same,AVERAGE % INHIBITION,[1]; IFNα2a 0.37 IU/mL,6.9%
same,AVERAGE % INHIBITION,[1]; IFNα2a 1.11 IU/mL,14.91%
same,AVERAGE % INHIBITION,[1]; IFNα2a 3.33 IU/mL,12.8%
same,AVERAGE % INHIBITION,[1]; IFNα2a 10.00 IU/mL,24.94%
same,"AVERAGE % INHIBITION, HBsAg",[1]; IFNα2a 0.12 IU/mL alone,−1.67%
same,"AVERAGE % INHIBITION, HBsAg",[1]; [4],−4.08%
same,"AVERAGE % INHIBITION, HBsAg",[1]; IFNα2a 0.37 IU/mL alone,4.6%
same,"AVERAGE % INHIBITION, HBsAg",[1]; [5],2.74%
same,"AVERAGE % INHIBITION, HBsAg",[1]; IFNα2a 1.11 IU/mL alone,8.8%
same,"AVERAGE % INHIBITION, HBsAg",[1]; [6],10.57%
same,"AVERAGE % INHIBITION, HBsAg",[1]; IFNα2a 3.33 IU/mL alone,10.2%
same,"AVERAGE % INHIBITION, HBsAg",[1]; [7],18.32%
same,"AVERAGE % INHIBITION, HBsAg",[1]; IFNα2a 10.00 IU/mL alone,20.1%
same,"AVERAGE % INHIBITION, HBsAg",[1]; [8],22.77%
same,AVERAGE % INHIBITION,[2]; IFNα2a 0.12 IU/mL,8.4%
same,AVERAGE % INHIBITION,[2]; IFNα2a 0.37 IU/mL,38.46%
same,AVERAGE % INHIBITION,[2]; IFNα2a 1.11 IU/mL,43.03%
same,AVERAGE % INHIBITION,[2]; IFNα2a 3.33 IU/mL,59.88%
same,AVERAGE % INHIBITION,[2]; IFNα2a 10.00 IU/mL,61.87%
same,"AVERAGE % INHIBITION, HBV DNA",[2]; IFNα2a 0.12 IU/mL alone,−18.56%
same,"AVERAGE % INHIBITION, HBV DNA",[2]; [4],−19.84%
same,"AVERAGE % INHIBITION, HBV DNA",[2]; IFNα2a 0.37 IU/mL alone,6.59%
same,"AVERAGE % INHIBITION, HBV DNA",[2]; [5],22.81%
same,"AVERAGE % INHIBITION, HBV DNA",[2]; IFNα2a 1.11 IU/mL alone,28.08%
same,"AVERAGE % INHIBITION, HBV DNA",[2]; [6],32.66%
same,"AVERAGE % INHIBITION, HBV DNA",[2]; IFNα2a 3.33 IU/mL alone,52.39%
same,"AVERAGE % INHIBITION, HBV DNA",[2]; [7],46.92%
same,"AVERAGE % INHIBITION, HBV DNA",[2]; IFNα2a 10.00 IU/mL alone,59%
same,"AVERAGE % INHIBITION, HBV DNA",[2]; [8],58.66%
same,AVERAGE % INHIBITION,[3]; IFNα2a 0.12 IU/mL,−9.5%
same,AVERAGE % INHIBITION,[3]; IFNα2a 0.37 IU/mL,−2.24%
same,AVERAGE % INHIBITION,[3]; IFNα2a 1.11 IU/mL,19.32%
same,AVERAGE % INHIBITION,[3]; IFNα2a 3.33 IU/mL,14.38%
same,AVERAGE % INHIBITION,[3]; IFNα2a 10.00 IU/mL,32.8%
same,"AVERAGE % INHIBITION, HBeAg",[3]; IFNα2a 0.12 IU/mL alone,7.42%
same,"AVERAGE % INHIBITION, HBeAg",[3]; [4],−21.05%
same,"AVERAGE % INHIBITION, HBeAg",[3]; IFNα2a 0.37 IU/mL alone,1.78%
same,"AVERAGE % INHIBITION, HBeAg",[3]; [5],−12.17%
same,"AVERAGE % INHIBITION, HBeAg",[3]; IFNα2a 1.11 IU/mL alone,15.27%
same,"AVERAGE % INHIBITION, HBeAg",[3]; [6],−1.13%
same,"AVERAGE % INHIBITION, HBeAg",[3]; IFNα2a 3.33 IU/mL alone,17.16%
same,"AVERAGE % INHIBITION, HBeAg",[3]; [7],6.47%
same,"AVERAGE % INHIBITION, HBeAg",[3]; IFNα2a 10.00 IU/mL alone,30.13%
same,"AVERAGE % INHIBITION, HBeAg",[3]; [8],17.32%

# Like-named read-outs stand apart in the source and are kept apart here.
